# Data: article PMC4620045 (Journal of pharmacokinetics and pharmacodynamics, 2015)
# Assay: Global PBPK model fitted to mouse plasma and tissue PK data
# Format: in vivo
# Settings: mice, model estimate
smiles,measurement,setting,value
CC(C)C[C@H](NC(=O)[C@H](Cc1ccccc1)NC(=O)c1cnccn1)B(O)O [Bortezomib],"Permeability (PStc,ti)",Liver,0.287 mL/min
same,"Permeability (PStc,ti)",Muscle,0.123 mL/min
